Consider 1 substance from US20230056821A1.

The chains behind the UniProt entries cited, without tags or fusion partners. Where a name states a change or a piece, a line headed by the entry shows the natural chain unless it says otherwise.
UniProt P15692: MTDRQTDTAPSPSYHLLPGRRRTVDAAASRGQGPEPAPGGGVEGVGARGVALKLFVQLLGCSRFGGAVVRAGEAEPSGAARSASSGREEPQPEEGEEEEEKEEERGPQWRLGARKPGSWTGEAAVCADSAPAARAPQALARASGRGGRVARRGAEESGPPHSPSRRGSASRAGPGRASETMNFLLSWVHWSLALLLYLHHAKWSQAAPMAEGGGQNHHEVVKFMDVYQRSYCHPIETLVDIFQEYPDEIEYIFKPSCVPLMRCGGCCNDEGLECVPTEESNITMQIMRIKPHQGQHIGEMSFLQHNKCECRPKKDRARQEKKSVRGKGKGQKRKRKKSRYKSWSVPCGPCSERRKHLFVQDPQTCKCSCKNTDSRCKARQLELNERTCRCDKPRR

For one assay, the target named is VEGF-A121 (UniProt P15692). Briefly: SPR, Biacore T200. For orientation: SPR reads the build-up and loss of mass on a sensor chip optically.
For assay [1], the target named is VEGF-A165 (human) (UniProt P15692). Description: SPR, Biacore T200.
For assay [2] the target is unchanged. Description: cell-based or functional assay.

As usually defined, the Kd is the free concentration of one partner at which half of the binding sites on the other are occupied at equilibrium, for simple one-to-one binding. Read a high Kd as weaker binding. One may read the koff as the first-order rate constant of dissociation. Read a low koff as slow dissociation. As a reminder, the kon is the second-order rate constant of association. Low values mean slow association, high ones fast association. As for Bevacizumab injection (antibody), in the assay with VEGF-A121, the Kd amounted to 0.0662 nM, the koff is 2.49e-05 s⁻¹ and the kon was found to be 375000 M⁻¹ s⁻¹. In the assay with VEGF-A165 (human) [1], the Kd was 0.0322 nM, the koff amounted to 4.06e-05 s⁻¹ and the kon stood at 1.26e+06 M⁻¹ s⁻¹. In the assay with VEGF-A165 (human) [2], the EC50 (ng/mL), inhibition of VEGF-A-induced HUVEC proliferation (CCK-8) was determined as 87.1 ng/mL and the EC50, inhibition of VEGF-A-induced HUVEC proliferation (CCK-8) was 0.584 nM.
